The data set in a line: Permeability of compound by PAMPA assay. Background: The PAMPA barrier holds no transporters, so it reflects passive diffusion.

Turning to `NCCNC(=O)/C=N/O`, the permeability was determined as 1.4 ×10⁻⁶ cm/s. Consider `CN(C)CCNC(=O)/C=N/O`, for which the permeability is 2.2 ×10⁻⁶ cm/s.

On to `O=C(/C=N/O)NCC(O)CO` (stereo not given), for which the permeability turned out to be 0.61 ×10⁻⁶ cm/s. To `CN(C)CCCNC(=O)/C=N/O` belongs 1.8 ×10⁻⁶ cm/s; to `O=C(/C=N/O)NCc1ncc[nH]1`, 1.1 ×10⁻⁶ cm/s. To `CC(=O)/C(C)=N/O` belongs 6 ×10⁻⁶ cm/s; to `C[N+](C)(C)CCNC(=O)/C=N/O.[I-]`, 1.6 ×10⁻⁶ cm/s.

Compound `O=C(/C=N/O)NCCN1CCCC1` came in with a permeability of 1.1 ×10⁻⁶ cm/s. `CCN(CC)CCNC(=O)/C=N/O` registered a permeability of 1.1 ×10⁻⁶ cm/s. Next, `NCC(O)CNC(=O)/C=N/O` (stereo not given): 0.81 ×10⁻⁶ cm/s.

Source of the values: ChEMBL document CHEMBL5120744, “Dual acting oximes designed for therapeutic decontamination of reactive organophosphates via catalytic inactivation and acetylcholinesterase reactivation” (2021).
